Marks after values point to notes of the source that are not given here.
Tests used:
full-length human RORγt [1] = biological target: T1, full-length human RORγt (Homo sapiens (Human), UniProt P51449); assay: cell-based; conditions: read-out: RORγt (FL) Reporter Assay B or C, % inhibition @ 6 μM
full-length human RORγt [2] = biological target: T1, full-length human RORγt; conditions: * 3 μM compound concentration

Amino acid sequences for entries named in this document (tags omitted). Chains listed by the source or under a name are the forms on record and can include a tag or linker.
UniProt P51449, other isoform, or with tags, fused parts or gaps: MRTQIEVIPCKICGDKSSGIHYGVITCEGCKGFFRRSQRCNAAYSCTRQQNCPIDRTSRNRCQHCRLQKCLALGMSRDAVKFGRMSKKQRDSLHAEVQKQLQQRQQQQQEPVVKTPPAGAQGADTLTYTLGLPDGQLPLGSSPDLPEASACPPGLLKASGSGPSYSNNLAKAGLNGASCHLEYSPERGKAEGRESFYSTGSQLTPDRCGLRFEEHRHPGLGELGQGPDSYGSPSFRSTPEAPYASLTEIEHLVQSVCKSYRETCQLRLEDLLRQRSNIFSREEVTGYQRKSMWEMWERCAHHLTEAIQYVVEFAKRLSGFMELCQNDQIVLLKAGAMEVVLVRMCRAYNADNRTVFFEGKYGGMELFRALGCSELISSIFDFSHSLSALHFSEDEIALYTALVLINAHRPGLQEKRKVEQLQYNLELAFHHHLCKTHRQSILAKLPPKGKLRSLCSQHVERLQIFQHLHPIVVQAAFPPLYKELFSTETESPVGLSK

inhibition at 6 µM (full-length human RORγt [1]) [%] | RORγt (FL) Reporter Assay B or C, % inhibition (full-length human RORγt [2]) | Compound
107 |  | Cc1cc(C(O)(C(F)(F)F)C(F)(F)F)ccc1-c1sc(C(=O)NCC(C)(C)O)nc1C(=O)N1CCC[C@@H]1C [Example 19, (S)-5-(4-(1,1,1,3,3,3-Hexafluoro-2-hydroxypropan-2-yl)-2-methylphenyl)-N-(2-hydroxy-2-methylpropyl)-4-(2-methylpyrrolidine-1-carbonyl)thiazole-2-carboxamide]
 | 79* % | Cc1cc(C(O)(C(F)(F)F)C(F)(F)F)ccc1-c1sc(C(=O)NCC(C)(C)O)nc1C(=O)N1CCC[C@H]1C [Example 19/1, (R)-5-(4-(1,1,1,3,3,3-Hexafluoro-2-hydroxypropan-2-yl)-2-methylphenyl)-N-(2-hydroxy-2-methylpropyl)-4-(2-methylpyrrolidine-1-carbonyl)thiazole-2-carboxamide]

Source: US10150762B2, “Trifluoromethyl alcohols as modulators of RORγt” (Janssen Pharmaceutica NV, priority 2014, dated 2018)
